The values below are quoted from earlier work in patent US20050153033A1, “Lactic acid bacteria for the treatment of food” (priority 2003, published 2005).

The conditions of the data set: enzymes as listed for each bacteriocin in b6, b115; cited from earlier work.

On to nisin, for which the “effect of proteolytic enzymes on the bacteriocin” value is given as “inactivate”.
